Apparent affinities of Ab-14 variants for a coronavirus HR2 peptide

Reference: Engelhart et al. 2022, doi:10.1038/s41597-022-01779-4. File: FLAb, binding data.

All variants were tested on one target, the spike HR2 peptide PDVDLGDISGINAS (SARS-CoV-2).

The variants keep the light chain, the linker and the frameworks of Ab-14 (scFv order VH, three GGGGS repeats, VL).
VH: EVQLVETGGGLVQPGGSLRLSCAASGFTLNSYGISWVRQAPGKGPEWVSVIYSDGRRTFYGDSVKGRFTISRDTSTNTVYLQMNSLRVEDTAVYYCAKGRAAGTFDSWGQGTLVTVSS
VL: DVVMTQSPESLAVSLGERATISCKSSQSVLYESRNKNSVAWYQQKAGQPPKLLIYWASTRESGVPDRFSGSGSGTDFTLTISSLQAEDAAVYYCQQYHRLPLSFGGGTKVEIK

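The library (AAYL49) carries one to three amino acid substitutions per variant, with no insertions or deletions. The scFvs were displayed on barcoded MATa yeast, the peptide on MATalpha yeast. Pairs that bind mate more often; barcode pairs of the diploids are counted by sequencing. Each replicate has its own calibration line, from reference interactions of the BCL2 family. There are three technical replicates.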

The parent's heavy chain CDRs are GFTLNSYGIS, VIYSDGRRTFYGDSVK, GRAAGTFDS; each variant's own CDRs replace them letter for letter.
Every variant below is changed at F59 of the VH (sequential numbering).
Kd is apparent (estimated from mating counts) and averaged on the log scale over replicates with a signal. Smaller is tighter.
"nd" marks a missing value. The strain was present, yet no cells mated with the target were sequenced in any replicate, which points to weak or no binding.
Nonspecific signal, from three strains lacking the peptide, appeared in 15% of pairings of library AAYL49, centred on 11 µM (5% of these signals below 680 nM); values are not corrected for it.
In this assay the parent's reference entry averaged 4.4 nM; its copy inside this library read 13 µM (one replicate of three).

With GFTLNSYGIS, VIYSDGQRTLYGDSVK, GRAAGTFTS the result was 120 µM (1 of 3 replicates).
With GFTLNSYGMS, VIYSDGRRTDYGDSSK, GRAAGTFDS the result was nd (0 of 3 replicates).
With GFTLKSYGIS, VIYSDGRRTLYGDSVK, GRAAGTVDS the result was 470 µM (3 of 3 replicates).
With GFTLNSYGIS, VIYSDGRRWVPGDSVK, GRAAGTFDS the result was nd (0 of 3 replicates).
With GFTLNSYGIS, VIYSYGRRTCYGDSWK, GRAAGTFDS the result was nd (0 of 3 replicates).
With GFTLNSYGIS, VIYSDGRRTSYGDSVK, GRAAGTFGE the result was 71 nM (3 of 3 replicates).
With GFTLNSYGIS, VIYCDGRRTWYGDSVK, GRGAGTFDS the result was nd (0 of 3 replicates).
With GFTLNSYGIS, MIYSTGRRTTYGDSVK, GRAAGTFDS the result was nd (0 of 3 replicates).
With GFTLNSYGIS, VIYSDGRRTHYGHSVK, GRAAGTFDI the result was nd (0 of 3 replicates).
With GFTLNSYGIS, VIQSDGRRTAYGYSVK, GRAAGTFDS the result was nd (0 of 3 replicates).
With GFTLNCYGIS, VIYSDGRRTHYGDSVT, GRAAGTFDS the result was 6.6 µM (3 of 3 replicates).
With GFTLNSYGIS, VIYSDGVRTPYGDSVK, GRAGGTFDS the result was nd (0 of 3 replicates).
With GFTLNSYGIS, VIYSDGRRTTYWSSVK, GRAAGTFDS the result was nd (0 of 3 replicates).
With GFTLNSLGIS, VIYSDGRRTNYGDSVK, GRAAGTFDS the result was 4.7 µM (2 of 3 replicates).
With GFTLNHYGIK, VIYSDGRRTPYGDSVK, GRAAGTFDS the result was 9.7 µM (1 of 3 replicates).
With HLTLNSYGIS, VIYSDGRRTRYGDSVK, GRAAGTFDS the result was nd (0 of 3 replicates).
With GFTLNSYQKS, VIYSDGRRTRYGDSVK, GRAAGTFDS the result was 260 nM (1 of 3 replicates).
With GFTLNSYGIS, VIYRDGRRVSYGDSVK, GRAAGTFDS the result was nd (0 of 3 replicates).
With GFTLNSYGIS, VIYSDGRYTQYGDSVK, GRAAGTFDD the result was nd (0 of 3 replicates).
With GFTLNSGGIS, VIYSDGRRTWYGDSRK, GRAAGTFDS the result was 2.7 µM (1 of 3 replicates).
With GFKLNSYGIS, VIASDGRRTNYGDSVK, GRAAGTFDS the result was 1.2 µM (1 of 3 replicates).
With GFTLNSYGIS, MIYSDGRRTRYGASVK, GRAAGTFDS the result was 6.6 µM (1 of 3 replicates).
With GFTLNSYGIS, VIYEDGRRTCYGDNVK, GRAAGTFDS the result was nd (0 of 3 replicates).
With GFTLNSYGIS, VIYSVGRRTSYGDSVK, GRHAGTFDS the result was nd (0 of 3 replicates).
With GFTLNSYGIS, VIYSDGRRTWAGDSMK, GRAAGTFDS the result was nd (0 of 3 replicates).
With GFTLNSYGIS, VIYSDGRRTIYGDSVK, GRAAGTFWD the result was nd (0 of 3 replicates).
With GFTLNSYGIS, VIYNDGRRTGYGDSVV, GRAAGTFDS the result was nd (0 of 3 replicates).
With GFTLNSYGIS, VIYRDGRRTQYGDSVK, GRAAGTFDC the result was 6.8 µM (2 of 3 replicates).
With IFTLNSYGIS, VIYSDGRRTSYGDSVK, GRAAGTFDE the result was 11 nM (3 of 3 replicates).
With GATLNSYGIS, VIYSDGRRTQYGDSVK, GRAAGTVDS the result was 160 µM (2 of 3 replicates).
With GFTLNSYGIS, VIYSDGMRTVYGDSVK, GRAAGTFDS the result was 55 nM (3 of 3 replicates).
With GFTENSYGIS, VIYSDGRTTTYGDSVK, GRAAGTFDS the result was 27 µM (1 of 3 replicates).
With GFTGNSYGIS, VIFSDGRRTNYGDSVK, GRAAGTFDS the result was 16 µM (1 of 3 replicates).
With GFTLNSIGIS, VIYSDGRRTEYGDSVK, GRAAGTFDS the result was 9.8 µM (3 of 3 replicates).
With GHTLNSYGIS, VIYSDGRRTSYGDSNK, GRAAGTFDS the result was 610 µM (1 of 3 replicates).
With GFTLNSYGIS, VIYSDGRRTRYGDSVK, GRAAGTGDD the result was 1.6 µM (2 of 3 replicates).
With GFTLCSYGIS, QIYSDGRRTWYGDSVK, GRAAGTFDS the result was nd (0 of 3 replicates).
With GFTLNYYGIS, VIYSDGRRTKYGDSVK, GRAAGTFDS the result was 3.3 µM (1 of 3 replicates).
With GFTLNMYGIS, VIYSDGRRTRYGDSVK, GRAAGRFDS the result was 6.5 µM (2 of 3 replicates).
With GFTLNSYGIS, VIVSDGRRTIYGDSVK, GRAAGAFDS the result was nd (0 of 3 replicates).
With GFTLSDYGIS, VIYSDGRRTVYGDSVK, GRAAGTFDS the result was 3.1 µM (1 of 3 replicates).
With GFTLNPYGIS, VIYSDGRRTCYGDSVK, GRAAGTFDV the result was 430 µM (3 of 3 replicates).
With GFTLYSYGIS, VIYSDGRRTWYGDSYK, GRAAGTFDS the result was 6.6 µM (2 of 3 replicates).
With GFTLNSYGDS, VIYSDGRRTMYGDSVK, GRAAHTFDS the result was 84 µM (3 of 3 replicates).
With GFTLNSYGIS, VIYSDGRRTMYGDSVK, ARAAGTFDS the result was 650 µM (2 of 3 replicates).
With GFTLNSYGIS, VIYSDGRRTGMGDSVK, TRAAGTFDS the result was 300 nM (3 of 3 replicates).
With GFTLNSYGIS, VIYSDVRRTGYGDSVK, GDAAGTFDS the result was nd (0 of 3 replicates).
With PFTLNSYGIS, VIYSDGRRTPYGDSVQ, GRAAGTFDS the result was nd (0 of 3 replicates).

From the list, the first 6 with no signal in any replicate:

The variant GFTLNSYGMS, VIYSDGRRTDYGDSSK, GRAAGTFDS showed nd (0 of 3 replicates).
The variant GFTLNSYGIS, VIYSDGRRWVPGDSVK, GRAAGTFDS showed nd (0 of 3 replicates).
The variant GFTLNSYGIS, VIYSYGRRTCYGDSWK, GRAAGTFDS showed nd (0 of 3 replicates).
The variant GFTLNSYGIS, VIYCDGRRTWYGDSVK, GRGAGTFDS showed nd (0 of 3 replicates).
The variant GFTLNSYGIS, MIYSTGRRTTYGDSVK, GRAAGTFDS showed nd (0 of 3 replicates).
The variant GFTLNSYGIS, VIYSDGRRTHYGHSVK, GRAAGTFDI showed nd (0 of 3 replicates).